The Emax is the size of the effect at its maximum, as opposed to the concentration needed.

Protein sequences, listed by entry. Tags and fused reporters are not part of them.
UniProt P14842, whole entry: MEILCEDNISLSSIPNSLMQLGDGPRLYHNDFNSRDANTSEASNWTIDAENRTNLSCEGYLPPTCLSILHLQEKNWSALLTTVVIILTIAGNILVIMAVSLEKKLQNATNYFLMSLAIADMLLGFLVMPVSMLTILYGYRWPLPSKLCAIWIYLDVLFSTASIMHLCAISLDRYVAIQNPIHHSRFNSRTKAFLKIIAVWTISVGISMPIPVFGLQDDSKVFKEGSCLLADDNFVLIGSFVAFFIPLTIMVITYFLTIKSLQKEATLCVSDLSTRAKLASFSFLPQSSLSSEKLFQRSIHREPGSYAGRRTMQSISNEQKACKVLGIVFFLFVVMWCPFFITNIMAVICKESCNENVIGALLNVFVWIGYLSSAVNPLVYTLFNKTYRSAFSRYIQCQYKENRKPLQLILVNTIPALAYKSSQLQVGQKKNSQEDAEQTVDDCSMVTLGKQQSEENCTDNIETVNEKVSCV

For this assay, the target named is 5HT2 receptor (Rattus norvegicus, UniProt P14842). Description: cell-based. The note with it: A7R5, read-out: Efficacy (Emax, %). As for the experimental part: Confluent cells are exposed for 24-30 hrs to 1.5 μCi [^3H]-myo-inositol (18.3 Ci/mmol) in 0.5 ml of serum-free medium. Cells are then rinsed once with DMEM/F-12 containing 10 mM LiCl prior to incubation with the test agent (or solvent as the control) in 1.0 ml of the same medium for 1 hr at 37° C., after which the medium is aspirated and 1 ml of cold 0.1 M formic acid added to stop the reaction. […] The eluate (4 ml) is collected, mixed with 15 ml scintillation fluid, and the total [^3H]-IPs determined by scintillation counting on a beta-counter.

Consider `COc1cc(C[C@@H](C)N)c(OC)cc1I` [(R)-DOI, (R)4-iodo-2,5 dimethoxy-α-methyl-benzeneethanamine], for which the Emax was found to be 82%.

Values taken from patent publication US6664286B1, “Serotonergic 5ht2 agonists for treating glaucoma” (Alcon Manufacturing, Ltd., priority 1998, dated 2003).
